# Data as given in BindingDB's records for doi:10.1111/j.1747-0285.2007.00514.x (University of Maryland, 2007).
# Biological target: HIV-1 protease (Human immunodeficiency virus, UniProt O90783)
# Assay: Inhibition Assay
# Description: Inhibition assay using HIV protease and Sulfonamide compounds.
row,Ki [nM],Structure (SMILES)
1,24,CNC(=O)CCC(=O)N[C@@H](Cc1ccccc1)[C@H](O)CN(CC1CC1)S(=O)(=O)c1cccc(OC)c1 [CARB-AD37]
2,0.005,"Cc1cccc(C)c1OCC(=O)N[C@@H](Cc1ccccc1)[C@@H](O)C[C@H](Cc1ccccc1)NC(=O)[C@H](C(C)C)N1CCCNC1=O [(2S)-N-[(2S,4S,5S)-5-[2-(2,6-dimethylphenoxy)acetamido]-4-hydroxy-1,6-diphenylhexan-2-yl]-3-methyl-2-(2-oxo-1,3-diazinan-1-yl)butanamide]"
3,58,CNC(=O)CCC(=O)N[C@@H](Cc1ccccc1)[C@H](O)CN(CC1CC1)S(=O)(=O)c1ccco1 [CARB-KB45]
